Values of other authors as cited in patent US20220194914A1, “METHODS AND SYSTEMS FOR PRODUCTION OF FURFURAL” (SHELL OIL COMPANY, priority 2020, published 2022).

Details: octanol-water; Table 2 solvents; cited from earlier work

Structure (SMILES): CC(=O)CC(C)C [methylisobutyl ketone]
- LogP: 1.25
